Data: patent US6926936B2, “Ink-jet recording sheet with improved ozone resistance” (Felix Schoeller Jr. Foto-und Spezialpapiere GmbH & Co. KG, priority 2002, dated 2005)

Test: Dissociation constant (Kb, pKb) of the water-soluble compounds

pKb: 10.4
Kb (dissociation constant): 3.80 × 10^−11
Substance: Na citrate dihydrate
